Measurements published in US8871280B1, “Compositions and methods for treating fungal activity in plants or soil” (The United States of America, as represented by the …, priority 2011, dated 2014).

Key:
Rhizoctonia solani = assay: Greenhouse suppression of damping off of cucumber seedlings in R. solani infested soil amended with plant extract; format: in vivo, Rhizoctonia solani AG-4, isolate Rs 23A; settings: 12 seeds sown per pot, infested soil amended with 0.3% PE
cucumber seeds = settings: in vivo, 0.3 % of PE in soil (3000 ppm)
Protocol: Soil treatment: For each treatment, 300 g of dry greenhouse soli (Pro-mix, Premier Horticulture LTD, Red Hill, Pa.) was thoroughly mixed with Rhizoctonia inoculum and incubated for 15 days as described above. […] The infested soil treated with only the carrier solution served as an untreated control. Following the treatment, the soil was thoroughly stirred to mix the contents and incubated in a double polythene bag closed tightly in the dark at room temperature for four days for fumigation to occur. Following the incubation, the bag was opened to allow as much PE to dissipate as possible. This was done by sprinkling the surface soil with sterile water every other day, and stirring the soil once every day for seven days. For assay of effect on seed germination and phytotoxicity of the plant extracts, soil was treated with plant extract formulations alone.
Greenhouse studies: Treated soil from each treatment was distributed to 4-inch plastic pots into which 12 seeds of cucumbers (95-100% germination) were sown and lightly watered to keep soil moist. The treatments were color coded and pots were randomized across treatment. All plants were kept in a greenhouse between 20° C. (night) to 26° C. (day) with 14 h of light. […] Total number of seedlings without any sign of damping off in each pot was recorded and percentage of disease suppression were calculated four weeks after sowing cucumber seeds.

Row | Compound | Avg. seed Germination (+ PE + R. solani) (Rhizoctonia solani) | % Seed germination (+ PE only) (cucumber seeds)
1 | Cc1ccc(C(C)C)cc1O [Carvacrol] | 5.67 | –
2 | Cc1ccc(C(C)C)c(O)c1 [Thymol] | – | 66.67%
3 | C=CCc1ccc(O)c(OC)c1 [Eugenol] | – | 83.33%
